Reference: patent US6239129A, “Cyano-indole serotonin-reuptake inhibitor compounds” (Adir et Compagnie, priority 1999, dated 2001)

Amino acid sequences for entries named in this document (tags omitted). Residues count along the entry.
UniProt P28335, 33-458: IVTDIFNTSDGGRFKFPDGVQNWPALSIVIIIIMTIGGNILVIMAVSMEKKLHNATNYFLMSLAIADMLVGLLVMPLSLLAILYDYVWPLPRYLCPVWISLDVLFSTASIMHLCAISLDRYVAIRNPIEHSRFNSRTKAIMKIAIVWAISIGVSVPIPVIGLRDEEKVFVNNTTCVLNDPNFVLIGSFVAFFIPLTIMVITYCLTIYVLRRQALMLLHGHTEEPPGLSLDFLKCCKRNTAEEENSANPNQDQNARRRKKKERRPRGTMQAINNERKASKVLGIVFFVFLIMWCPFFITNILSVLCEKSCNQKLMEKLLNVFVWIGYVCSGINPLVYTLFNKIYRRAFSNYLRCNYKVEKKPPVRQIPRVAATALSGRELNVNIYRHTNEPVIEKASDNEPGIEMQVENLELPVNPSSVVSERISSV

Molecular target: 5-HT2c Receptors (Homo sapiens, UniProt P28335)
Assay: biochemical
Assay type: binding
Conditions: radioligand KD; pH=7.7, 22° C.; read-out: dissociation constant KD
Description: The radioactivity retained on the filters is determined by liquid scintillation counting. The binding isotherms are analysed by non-linear regression to determine the IC50 values.

`CN1C[C@@H](NS(=O)(=O)N(C)C)C[C@@H]2c3cccc4c3c(cn4C)C[C@H]21` [[^3 H]-mesulergine] was tested, and the Kd was 540 pM.
